# Assay results taken from article PMC5959751 (Biochemical pharmacology, 2018).
# Amino acid sequences for entries named in this document (tags omitted).
# UniProt P0DMS8, whole entry: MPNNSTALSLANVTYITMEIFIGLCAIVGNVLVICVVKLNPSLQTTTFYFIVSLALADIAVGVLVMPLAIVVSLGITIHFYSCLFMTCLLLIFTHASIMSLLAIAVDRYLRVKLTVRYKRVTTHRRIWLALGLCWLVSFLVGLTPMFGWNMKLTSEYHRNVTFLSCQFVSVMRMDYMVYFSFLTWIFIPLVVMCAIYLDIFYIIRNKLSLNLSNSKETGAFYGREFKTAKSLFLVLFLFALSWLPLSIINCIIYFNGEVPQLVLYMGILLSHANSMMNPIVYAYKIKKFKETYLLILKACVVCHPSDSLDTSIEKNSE
# Biological target: hA3 receptor (Homo sapiens, UniProt P0DMS8)
# Test: Radioligand equilibrium displacement assay with [3H]PSB-11 on CHOhA3 membranes
# Assay type: binding
# Conditions: no GTP; displacement curves
structure (smiles),measurement,value
"CNC(=O)[C@H]1O[C@@H](n2cnc3c(NCc4cccc(I)c4)nc(Cl)nc32)[C@H](O)[C@@H]1O [2-Cl-IB-MECA, 2-chloro-N^6-(3-iodobenzyl)-adenosine-5′-N-methyluronamide, reference compound]",Hill Slope,-0.85 ± 0.21 ^ns
